Test results taken from US20150086509A1, “COMPOSITIONS AND METHODS FOR TREATING CANCER USING INTERFERON AND MAPK PATHWAY INHIBITOR” (The Trustees of Columbia University in the City of New York, priority 2013, published 2015).

Tests used:
Format in all cases: cell-based, human
[1] = tested on: melanoma cell lines (low- and high-pSTAT1); assay: Apoptosis assessed by TUNEL staining 72 h after treatment; settings: for cytotoxic effect of IFNβ as single agent (TUNEL): IFNβ 1000 U/mL, 72 h
Experimental: (§1) Control samples were collected untreated at time of treatment.
Apoptosis was assessed by TUNEL staining Cells were plated in 6-well plates at 200K cells/well. […] TUNEL was performed using Invitrogen BrdU TUNEL kit.

[2] = tested on: high pSTAT1 cell line; assay: Cytotoxicity of IFN by SubG1 percentage; settings: 48 hours after treatment
Experimental: FIG. 12—A. Dose-dependent response to IFNα and IFNβ. The cytotoxicity of IFN was assessed in high pSTAT1 cell line, 48 hours after treatment using SubG1 percentage. […] 1000 Units/mL of IFNβ was used for the experiments in Examples. Cells plated in 6 well plates, 200K cells/well, in 2 mL of growth media. B. Growth curves of 2 low- (top) and 2 high- (bottom) pSTAT1 cell lines with MEK inhibition, IFNβ or both. 50K cells per well were plated in 6-well plates with 2 mL of media and treated 24 hours later. Cells were counted every 24 hours up to 72 hours. C. Comparison of MEK inhibition and BRAF inhibition, with and without combination with IFNβ. Cells were plated in 6 well plates, 200K cells/well with 2 mL media.

[3] = tested on: IFN targets (interferon response pathway); assay: Gene expression microarrays after PD325901, IFNβ or their combination; settings: 8 hours after treatment; IFNβ 1000U/mL; three low- and three high-pSTAT1 cell lines; listed as IFN
[4] = tested on: pSTAT1 (interferon-STAT1 pathway); assay: Western blots of pSTAT1 levels; settings: low- and high-pSTAT1 cell lines
Experimental: as §1
(§2) Samples for protein analysis were lysed using RIPA buffer. Protein concentration was assessed using BCA staining Samples were then normalized to a fixed concentration and mixed with a 5× glycerol/SDS/DTT loading buffer. Lysates were run on gradient (4-12%) Bis-Tris gels. After incubation with horseradish peroxidase-conjugated secondary antibodies, proteins were detected using chemiluminescence.

[5] = tested on: intrinsic apoptotic pathway (cytochrome C release); assay: Cytochrome C release from the mitochondria; settings: all cell lines, including high-pSTAT1
Experimental: Cytochrome C release was assessed on fresh unfrozen pellets using Sucrose/Mannitol buffer (Majewski et al., 2004). Full details in the supplementary material.
Protocol for Cytochrome C release is taken, as is, from Majewski et al 2004. Lysis buffer: 20 mM Hepes-KOH, [pH 7.5], 210 mM sucrose, and 70 mM mannitol; 1.5 mM MgCl2, 10 mM […], protease inhibitor, and 1 mg digitonin/1 mL lysis buffer.
Cells are trypsinized, collected and spun down in 4C. They are then washed with PBS and spun down again. It is critical that cell pellets will be lysed immediately without freezing. Cells are gently suspended, without vortexing, in lysis buffer. Roughly double the cell pellet volume is used. They are incubated in 25C for 3-10 min, depending all cell line. Spun down at 4C for 20 minutes at highest speed. Supernatant contains cytoplasmic fraction.

[6] = tested on: caspase pathway (caspases 9, 7 and 3); assay: Cleaved caspases by Western blot; settings: IFNβ single agent
Experimental: as §1, §2

IFNβ: Interferon beta (1000 U/mL, R&D 11415), Type I interferon
cytotoxic effect of IFNβ as single agent (TUNEL) ([1]; high-pSTAT1 cell lines): one high-pSTAT1 cell line was marginally sensitive | increase in TUNEL-positive cells when IFNβ is added to MEK inhibition ([1]; low-pSTAT1 cell lines, IFNβ 1000 U/mL + PD325901 50 nM, versus MEK inhibition alone): almost two-fold | cytotoxic effect of IFNβ as single agent (TUNEL) ([1]; low-pSTAT1 cell lines): resistant; also recorded: no cytotoxic effect | cytotoxic / apoptotic effect of IFN (SubG1 percentage) [2]: stronger apoptotic response than IFNα; also recorded: dose-dependent effects | increase in expression of IFN targets following IFNβ treatment [3]: up to 500 fold | pSTAT1 levels after treatment [4]: quickly elevates pSTAT1 levels | effect of IFNβ co-treatment on MEKi-induced cytochrome C release [5]: enhances the response in all cell lines | caspase activation by IFNβ alone [6]: does not activate them; also recorded: fails to activate the pathway by itself

Entries after “also recorded” stand apart in the source; their conditions may differ.
